Results taken from publication PMC7321161, “The Intriguing Effects of Substituents in the N-Phenethyl Moiety of Norhydromorphone: A Bifunctional Opioid from a Set of “Tail Wags Dog” Experiments” (Molecules, 2020).

The chains behind the UniProt entries cited, without tags or fusion partners.
UniProt P35372, whole entry: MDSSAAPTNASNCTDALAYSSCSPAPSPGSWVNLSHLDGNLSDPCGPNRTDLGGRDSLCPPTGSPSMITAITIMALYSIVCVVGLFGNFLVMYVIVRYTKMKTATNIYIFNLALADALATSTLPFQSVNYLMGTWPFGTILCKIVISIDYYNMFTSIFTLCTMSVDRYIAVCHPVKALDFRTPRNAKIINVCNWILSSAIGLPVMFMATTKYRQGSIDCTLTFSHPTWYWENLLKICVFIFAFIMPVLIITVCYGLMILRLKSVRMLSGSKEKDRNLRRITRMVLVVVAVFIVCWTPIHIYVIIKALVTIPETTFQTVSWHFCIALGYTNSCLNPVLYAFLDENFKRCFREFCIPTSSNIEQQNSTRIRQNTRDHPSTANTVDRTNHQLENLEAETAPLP

Tests used:
[1] = target: T1, human μ-opioid receptor (OPRM1) (Homo sapiens, UniProt P35372); experiment: cell-based; details: OPRM1, read-out: MOR cAMP % Efficacy
T1 construct: host or cells: HitHunter CHO-K1 cells

[2] = target: T2, human μ-opioid receptor β-arrestin-2 (Homo sapiens, UniProt P35372); experiment: cell-based
T2 construct: enzyme fragment for EFC (β-galactosidase ProLink fragment, by own knowledge of the PathHunter system); host or cells: PathHunter CHO cells

## CN1CC[C@]23c4c5ccc(O)c4O[C@H]2C(=O)CC[C@H]3[C@H]1C5 [Compound S5, hydromorphone]
[1]
  Emax: 102%
[2]
  Bias Factor: 3.48
[2]; read-out: MOR Mediated β-arrestin Recruitment (% Control, Emax DAMGO)
  Emax: 19.8%
